Experiment in all cases: XTT cell viability assay after light treatment
What all share (assay type): cell-based, human

One assay deals with IGR-1. As to conditions: light 580-1400 nm. Here is the method:
(§1) The human skin epidermoid carcinoma cell line A431 (ATCC: CRL-259), human embryonic kidney (HEK-293T) cell line (ATCC: CRL-11268) and the human melanoma cell line A2058 (ATCC: CRL-11147) were cultured in RPMI-1640 medium. The human melanoma cell line IGR-39 (DSMZ: ACC 239) and IGR-1 (DSMZ: ACC-236) were cultured in DEME medium. All media were supplemented with 2 mM L-glutamine, 10% (v/v) fetal bovine serum (FBS) and 100 U/mL penicillin-streptomycin; the cells were incubated at 37° C. in a 5% CO2 atm. All media and additives were purchased from Life Technologies, Darmstadt, Germany.
(§2) In addition to the in vitro imaging specificity, the phototoxic activity of scFv-SNAP-IR700 and free IR700 were also investigated using cell proliferation and cell apoptosis assays as described previously (9). Briefly, 2×10^4 cells were seeded in 96-well plates and incubated overnight at 37° C. The cells were treated with different concentrations (0, 12.5, 25, 50, 100, 200 and 400) nM of scFv-425-SNAP, IR700 or equivalent concentration of scFv-SNAP-425-IR700 for 3 h at 37° C. in the dark. Toxic control cultures were incubated with 500 μg/mL zeocin instead of the photosensitizer.
(§3) Before light irradiation, cells were washed three times with PBS and fresh phenol red free culture media were added to the cells. Light treatment was performed with a Hydrosun® Typ 750 radiator with a water-containing cuvette and an orange filter OG590, with 140 mW/cm^2, dose: 25 J/cm^2a VIS, 76 J/cm^2 wIRA, exposure time: 15 min, and a spectrum in the range of 580-1400 nm (Hydrosun Medizintechnik GmbH, Mülhelm, Germany). […]
(§4) Cell viability was measured using the cell proliferation kit II (XTT®) (Roche, Mannheim Germany) according to the manufacturer's instructions. […] Cell viability was determined colorimetrically by monitoring the reduction of XTT® to formazan at 450 nm absorbance wavelength and 630 nm reference wavelength using the ELx808 absorbance micro-plate reader (BioTek Instruments GmbH, Bad Friedrichshall, Germany).

A further assay relates to IGR-39. The following applies: light 580-1400 nm. On the procedure:
as §1, §2, §3, §4

The next assay deals with A431. As to conditions: light 580-1400 nm, 3 h incubation, read 24 h after light. Here is the method:
as §1, §2, §3, §4

B1: scFv-425-SNAP-IR700: IR700 photosensitizer (via BG-PEG24 linker) conjugated to anti-EGFR single-chain variable fragment scFv-425 fused to SNAP-tag (conjugate)
scFv: MAQVQLQQSGAELVKPGASVKLSCKASGYTFTSHWMHWVKQRAGQGLEWIGEFNPSNGRTNYNEKFKSKATLTVDKSSSTAYMQLSSLTSEDSAVYYCASRDYDYDGRYFDYWGQGTTVTVSSGGGGSGGGGSGGGGSDIELTQSPAIMSASPGEKVTMTCSASSSVTYMYWYQQKPGSSPRLLIYDTSNLASGVPVRFSGSGSGTSYSLTISRMEAEDAATYYCQQWSSHIFTFGSGTELEIKRMDKDCEMKRTTLDSPLGKLELSGCEQGLHEIKLLGKGTSAADAVEVPAPAAVLGGPEPLMQATAWLNAYFHQPEAIEEFPVPALHHPVFQQESFTRQVLWKLLKVVKFGEVISYQQLAALAGNPAATAAVKTALSGNPVPILIPCHRVVSSSGAVGGYEGGLAVKEWLLAHEGHRLGKP
modifications: left off: small tags and cut ends
notes: IR700 photosensitizer (via BG-PEG24 linker) conjugated to anti-EGFR single-chain variable fragment scFv-425 fused to SNAP-tag
Turning to B1, the figures for the half-maximal effective concentration (EC50) in the assay with IGR-1, in the assay on IGR-39 and with A431 were 45 nM, 55 nM and 32 nM, respectively.
